# Binding of CDR-mutated scFvs to a peptide of the spike HR2 region

From the AlphaSeq antibody data of Engelhart et al. 2022 (doi:10.1038/s41597-022-01779-4), copy in the FLAb collection.

The target is the same throughout: PDVDLGDISGINAS, from the HR2 region of SARS-CoV-2 spike.

Parent scFv Ab-95: VH joined to VL by a (GGGGS)3 linker. Changes lie in the light chain CDRs alone.
VH: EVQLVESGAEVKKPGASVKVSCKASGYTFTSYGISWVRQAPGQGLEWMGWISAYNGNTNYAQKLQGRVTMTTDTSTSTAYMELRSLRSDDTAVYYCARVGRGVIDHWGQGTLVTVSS
VL: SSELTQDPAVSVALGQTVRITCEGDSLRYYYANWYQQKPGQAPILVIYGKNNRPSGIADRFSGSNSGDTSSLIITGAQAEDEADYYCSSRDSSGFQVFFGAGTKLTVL

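Phage display of a naive human antibody library on the peptide gave the parent. Library AAYL52 holds single substitutions and randomly drawn double and triple substitutions in the CDRs. The assay is AlphaSeq: two haploid yeast populations carry antibody and antigen on their surface. After mating in shaken culture at 30 °C for 16 h, diploids were selected and their barcode pairs sequenced. The ratio of observed to expected reads was calibrated, replicate by replicate, on BCL2-family standards whose Kd was known from biolayer interferometry. There are three technical replicates.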

Positions count from residue 1 of the parent VL; G24S puts S in place of G.
The read-out is the apparent dissociation constant on a log10 scale (nM): the lower, the stronger.
Averages over replicates are reported, and they cover detected replicates only.
Where no diploid with the target was found in any replicate, the entry reads "no signal": below detection, most likely a poor binder, though not proof of it.
Nonspecific signal, from three strains lacking the peptide, appeared in 28% of pairings of library AAYL52, centred on 3.91 (5% of these signals below 2.90); values are not corrected for it. For each scFv, signals with the empty controls are counted beside the result.

| mean log10 Kd (nM) | detected | control signals | changes |
|---|---|---|---|
| 4.29 | 3/3 | 4/9 | G24S+S89E+R90G |
| 3.94 | 3/3 | 4/9 | Y29K+P54H+S92D |
| 4.48 | 1/3 | 3/9 | N33L+K50S+P54M |
| 2.87 | 3/3 | 0/9 | E23W+S89K+R90C |
| 4.22 | 2/3 | 4/9 | N33C+S93E+Q96T |
| no signal | 0/3 | 2/9 | D25H+L27E+R90D |
| 3.24 | 2/3 | 1/9 | Y31T+F95G+F98I |
| 2.31 | 3/3 | 2/9 | A32T+S92Q+V97E |
| 4.39 | 3/3 | 5/9 | N51G+P54T+V97H |
| 3.94 | 2/3 | 2/9 | S55I+S89P+D91H |
| 4.63 | 2/3 | 4/9 | L27E+R53K+S55W |
| 3.38 | 3/3 | 5/9 | R28F+N52W+F95T |
| 4.44 | 2/3 | 1/9 | D25T+D91F+S92V |
| 2.48 | 3/3 | 8/9 | Y30T+Y31V+F95D |
| 2.40 | 3/3 | 4/9 | K50G+S88R+Q96W |
| 3.38 | 1/3 | 4/9 | G24W+R28A+S88P |
| no signal | 0/3 | 1/9 | A32N+N33M+S93K |
| 4.85 | 1/3 | 2/9 | S26F+A32I+F98I |
| 4.05 | 1/3 | 4/9 | S26L+R28P+V97S |
| 3.42 | 3/3 | 4/9 | S26R+K50T+N52S |
| 4.35 | 3/3 | 0/9 | Y29K+A32M |
| 3.49 | 1/3 | 0/9 | E23W+S26A+L27I |
| 2.96 | 3/3 | 1/9 | Y31E+A32H+N52L |
| 4.11 | 1/3 | 2/9 | L27E+P54N |
| 4.42 | 2/3 | 3/9 | E23S+L27G+G49A |
| 3.58 | 2/3 | 3/9 | Y31H+N33A+S92R |
| 3.53 | 3/3 | 3/9 | G24Y+Y31R |
| 4.03 | 2/3 | 0/9 | N51K+G94Y+Q96T |
| 3.28 | 1/3 | 3/9 | G94D+F98V |
| 3.30 | 1/3 | 3/9 | N51E+R90P+F98V |
| 2.30 | 1/3 | 0/9 | G49L+N51A+F95T |
| 4.55 | 1/3 | 2/9 | S89I+G94F+F98K |
| 2.31 | 3/3 | 2/9 | S26G+S88T |
| 3.60 | 2/3 | 1/9 | R28A+G49S+F98S |
| 1.57 | 3/3 | 2/9 | S26L+N51S+S55D |
| 5.28 | 1/3 | 1/9 | S26R+G49V+V97F |
| 3.54 | 2/3 | 2/9 | D25K+G94M+F95L |
| 3.78 | 3/3 | 3/9 | A32N+N52R+S55G |
| 2.90 | 2/3 | 2/9 | P54Y+S93Y+V97Q |
| 2.58 | 3/3 | 2/9 | N52Y+F95S+F98L |
| 3.33 | 3/3 | 2/9 | D25A+Y30K+G94V |
| 4.90 | 2/3 | 5/9 | L27Q+S93F+G94P |
| 1.20 | 3/3 | 2/9 | Y30Q+S93G |
| 1.37 | 3/3 | 0/9 | S26Y+Y30T+N52I |
| 1.33 | 3/3 | 3/9 | Y30G+R90P+D91P |
| no signal | 0/3 | 0/9 | L27S+D91F+F98G |
| 3.12 | 1/3 | 1/9 | P54G+S88D+Q96T |
| 3.94 | 3/3 | 3/9 | Y30I+N51F+D91S |
| 4.36 | 2/3 | 3/9 | G24H+D25P+N33G |
| 3.57 | 3/3 | 2/9 | E23W+Y31R+V97L |
| no signal | 0/3 | 1/9 | S26T+R53S+S92I |

Picked from the list: the 9 lowest averages where every replicate gave a value.

changes	mean log10 Kd (nM)	detected	control signals
Y30Q+S93G	1.20	3/3	2/9
Y30G+R90P+D91P	1.33	3/3	3/9
S26Y+Y30T+N52I	1.37	3/3	0/9
S26L+N51S+S55D	1.57	3/3	2/9
S26G+S88T	2.31	3/3	2/9
A32T+S92Q+V97E	2.31	3/3	2/9
K50G+S88R+Q96W	2.40	3/3	4/9
Y30T+Y31V+F95D	2.48	3/3	8/9
N52Y+F95S+F98L	2.58	3/3	2/9

For reference, the parent read 2.31 as the reference entry and 2.25 as a member of this library.